Test results reported in patent publication US20160075651A1, “GLYCOLIPID INHIBITION USING IMINOSUGARS” (UNITHER VIROLOGY, LLC, priority 2013, published 2016).

Protein sequences, listed by entry. Tags and fused reporters are not part of them. Lines headed by an entry give the natural chain unless they say otherwise; changes in a name come on top. Residues count along the entry.
UniProt P04062, 40-536 limits assumed: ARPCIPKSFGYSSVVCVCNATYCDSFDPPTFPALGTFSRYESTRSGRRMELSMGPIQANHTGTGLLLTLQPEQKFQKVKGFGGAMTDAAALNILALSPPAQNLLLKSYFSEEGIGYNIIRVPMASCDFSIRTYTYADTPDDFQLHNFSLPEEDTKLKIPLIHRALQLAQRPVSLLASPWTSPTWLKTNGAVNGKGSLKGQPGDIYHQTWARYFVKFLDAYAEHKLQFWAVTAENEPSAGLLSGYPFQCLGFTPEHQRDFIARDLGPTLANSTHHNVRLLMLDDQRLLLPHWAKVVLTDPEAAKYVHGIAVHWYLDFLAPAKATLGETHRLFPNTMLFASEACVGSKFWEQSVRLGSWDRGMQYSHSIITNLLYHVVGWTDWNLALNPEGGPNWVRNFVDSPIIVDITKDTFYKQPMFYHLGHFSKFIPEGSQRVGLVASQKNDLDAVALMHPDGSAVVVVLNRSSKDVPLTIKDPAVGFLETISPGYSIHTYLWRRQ
UniProt P04062, 40-536 N409S limits assumed: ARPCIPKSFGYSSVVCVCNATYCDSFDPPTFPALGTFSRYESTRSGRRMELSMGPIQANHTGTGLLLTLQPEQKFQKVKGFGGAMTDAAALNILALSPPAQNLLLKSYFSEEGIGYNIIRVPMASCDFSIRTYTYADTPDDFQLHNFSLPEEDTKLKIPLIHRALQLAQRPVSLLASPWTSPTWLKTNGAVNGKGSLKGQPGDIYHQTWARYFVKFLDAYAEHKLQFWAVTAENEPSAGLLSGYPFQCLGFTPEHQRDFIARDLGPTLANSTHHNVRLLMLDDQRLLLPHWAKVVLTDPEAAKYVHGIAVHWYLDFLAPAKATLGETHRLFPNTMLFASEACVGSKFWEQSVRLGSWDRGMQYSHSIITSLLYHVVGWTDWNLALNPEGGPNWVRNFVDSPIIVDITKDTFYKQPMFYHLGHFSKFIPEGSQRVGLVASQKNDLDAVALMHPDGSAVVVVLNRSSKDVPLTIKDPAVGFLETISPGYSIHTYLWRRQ
UniProt Q16739, whole entry: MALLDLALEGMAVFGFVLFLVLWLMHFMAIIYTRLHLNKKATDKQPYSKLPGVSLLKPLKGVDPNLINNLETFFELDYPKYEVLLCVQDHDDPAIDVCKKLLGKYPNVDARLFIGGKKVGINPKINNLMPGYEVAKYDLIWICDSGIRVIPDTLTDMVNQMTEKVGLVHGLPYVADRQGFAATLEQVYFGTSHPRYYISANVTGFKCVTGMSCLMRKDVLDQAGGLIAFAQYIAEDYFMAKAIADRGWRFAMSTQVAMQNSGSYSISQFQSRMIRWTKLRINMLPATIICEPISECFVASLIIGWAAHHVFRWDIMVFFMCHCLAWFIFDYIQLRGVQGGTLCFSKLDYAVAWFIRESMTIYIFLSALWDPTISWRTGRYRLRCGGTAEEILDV

Assays:
[1] = target: human placental β-glucocerebrosidase (Homo sapiens, UniProt P04062); test: β-Glucocerebrosidase inhibition assay (4-methylumbelliferyl-β-glucoside, fluorogenic); assay type: biochemical; details: read-out: IC50 (μM), 50% inhibition of β-glucocerebrosidase activity; human placental enzyme, 0.5 mM 4-MU-β-glucoside, pH 5.2
[2] = target: β-glucocerebrosidase (N370S mutant) (Homo sapiens, UniProt P04062, N409S); test: β-Glucocerebrosidase activation (chaperone) assay in Gaucher N370S cells; assay type: cell-based; details: 3 days, versus untreated cells
[3] = target: ceramide glucosyltransferase (Homo sapiens, UniProt Q16739); test: Ceramide glucosyltransferase cellular assay (GM3 reduction in HL60 cells, NP-HPLC); assay type: cell-based; details: read-out: IC50 (μM), 50% inhibition of ceramide glucosyltransferase activity in HL60 cells, 3 days, GM3 peak area

SMILES	IC50 [1] [µM]	Activation fold at 10 μM [2] [fold]	IC50 [3] [µM]
OC[C@@H]1[C@@H](O)[C@H](O)[C@@H](O)CN1CCCCCCCNc1ccc(F)cc1F	0.079	1.75	
CCCOCCCCCCN1C[C@H](O)[C@@H](O)[C@H](O)[C@H]1CO	7.57	1.8	10.3
